# Data from patent publication US6414037B1 (Pharmascience, priority 1998, dated 2002).
# What was measured:
# sun damage = test: Prevention of sun damage in humans (UVB irradiation); details: 10 patients, formulations of Example 1 and 2 applied 2 hours before and 1 hour after UVB
# quinone reductase = test: Induction of quinone reductase activity in BP^1Cl hepatoma cells; details: cultured BP^1Cl hepatoma cells, compared with Hepa 1c1c7
# skin tumors = test: Two-stage mouse skin cancer model (DMBA initiator, TPA promoter); type: in vivo, female CD-1 mice
# C3H/10T1/2 clone 8 cells = test: Two-stage transformation assay in C3H10T1/2 cells; type: cell-based, mouse; details: TPA (0.1 μg/ml)
# [1] = test system: carrageenan-induced inflammation; test: Carrageenan-induced inflammation in rats (paw volume); details: phenylbutazone 80 mg/kg oral
# [2] = test system: mouse mammary gland culture
# [3] = 1 μmol resveratrol topically with TPA twice a week for 18 weeks
# [4] = 5 μmol resveratrol topically with TPA twice a week for 18 weeks
# [5] = 10 μmol resveratrol topically with TPA twice a week for 18 weeks
structure (smiles),measurement,setting,value
Oc1ccc(/C=C/c2cc(O)cc(O)c2)cc1,prevention of sun damage,sun damage,prevents sun damage in humans
same,quinone reductase induction response profile,quinone reductase,identical response profile
same,lowering of percentage of mice with tumors,skin tumors; [3],50%
same,reduction of number of skin tumors per mouse,skin tumors; [3],68%
same,lowering of percentage of mice with tumors,skin tumors; [4],63%
same,reduction of number of skin tumors per mouse,skin tumors; [4],81%
same,lowering of percentage of mice with tumors,skin tumors; [5],63%
same,reduction of number of skin tumors per mouse,skin tumors; [5],76%
same,reduction of number of skin tumors per mouse,skin tumors; 25 μmol resveratrol topically with TPA twice a week for 18 weeks,98%
same,"toxicity (skin inspection, gross morphology of major organ systems, body weights)",skin tumors; 1-25 μmol topically twice a week for 18 weeks,No overt signs of resveratrol-induced toxicity were observed
same,No. of wells foci/total no. of wells,"C3H/10T1/2 clone 8 cells; DMBA ([…]), resveratrol 10 μM",2/12
same,Total No. of foci/no. wells scored,"C3H/10T1/2 clone 8 cells; DMBA ([…]), resveratrol 10 μM",2/12
same,Total No. type II,"C3H/10T1/2 clone 8 cells; DMBA ([…]), resveratrol 10 μM",1
same,Total No. type III,"C3H/10T1/2 clone 8 cells; DMBA ([…]), resveratrol 10 μM",1
same,Wells with foci (%),"C3H/10T1/2 clone 8 cells; DMBA ([…]), resveratrol 10 μM",17%
same,No. of wells foci/total no. of wells,"C3H/10T1/2 clone 8 cells; DMBA ([…]), resveratrol 2.5",3/12
same,Total No. of foci/no. wells scored,"C3H/10T1/2 clone 8 cells; DMBA ([…]), resveratrol 2.5",3/12
same,Total No. type II,"C3H/10T1/2 clone 8 cells; DMBA ([…]), resveratrol 2.5",3
same,Total No. type III,"C3H/10T1/2 clone 8 cells; DMBA ([…]), resveratrol 2.5",0
same,No. of wells foci/total no. of wells,"C3H/10T1/2 clone 8 cells; DMBA ([…]), resveratrol 5.0",2/12
same,Total No. of foci/no. wells scored,"C3H/10T1/2 clone 8 cells; DMBA ([…]), resveratrol 5.0",2/12
same,Total No. type II,"C3H/10T1/2 clone 8 cells; DMBA ([…]), resveratrol 5.0",1
same,Total No. type III,"C3H/10T1/2 clone 8 cells; DMBA ([…]), resveratrol 5.0",1
same,Wells with foci (%),"C3H/10T1/2 clone 8 cells; DMBA ([…]), resveratrol 5.0",17%
same,No. of wells foci/total no. of wells,"C3H/10T1/2 clone 8 cells; MCA ([…]), resveratrol 5.0 μM",2/12
same,Total No. of foci/no. wells scored,"C3H/10T1/2 clone 8 cells; MCA ([…]), resveratrol 5.0 μM",4/12
same,Total No. type II,"C3H/10T1/2 clone 8 cells; MCA ([…]), resveratrol 5.0 μM",3
same,Total No. type III,"C3H/10T1/2 clone 8 cells; MCA ([…]), resveratrol 5.0 μM",1
same,Wells with foci (%),"C3H/10T1/2 clone 8 cells; MCA ([…]), resveratrol 5.0 μM",17%
same,No. of wells foci/total no. of wells,"C3H/10T1/2 clone 8 cells; MCA ([…]), resveratrol 10",1/12
same,Total No. of foci/no. wells scored,"C3H/10T1/2 clone 8 cells; MCA ([…]), resveratrol 10",1/12
same,Total No. type II,"C3H/10T1/2 clone 8 cells; MCA ([…]), resveratrol 10",1
same,Total No. type III,"C3H/10T1/2 clone 8 cells; MCA ([…]), resveratrol 10",0
same,Wells with foci (%),"C3H/10T1/2 clone 8 cells; MCA ([…]), resveratrol 10",8.3%
same,No. of wells foci/total no. of wells,"C3H/10T1/2 clone 8 cells; MCA ([…]), resveratrol […]",2/12
same,Total No. of foci/no. wells scored,"C3H/10T1/2 clone 8 cells; MCA ([…]), resveratrol […]",3/12
same,Total No. type II,"C3H/10T1/2 clone 8 cells; MCA ([…]), resveratrol […]",3
same,Total No. type III,"C3H/10T1/2 clone 8 cells; MCA ([…]), resveratrol […]",0
same,Wells with foci (%),"C3H/10T1/2 clone 8 cells; MCA ([…]), resveratrol […]",17%
same,edema-suppressing activity compared with phenylbutazone,[1],greater than that of phenylbutazone
same,toxicity by morphological examination of the glands,[2],No signs of toxicity were observed
